According to ChEMBL document CHEMBL4261658, “4-Hydroxy-3-nitro-5-ureido-benzenesulfonamides Selectively Target the Tumor-Associated Carbonic Anhydrase Isoforms IX and XII Showing Hypoxia-Enhanced Antiproliferative Profiles” (J Med Chem, 2018):

What was measured:
Assay type in all cases: functional, cell-based
MDA-MB-231 [1] = assay: Cytotoxicity against human MDA-MB-231 cells assessed as reduction in cell viability after 48 hrs under hypoxic conditions by MTT assay
In short: (§1)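 Cells cultured in high-glucose DMEM with 20% FBS at 37 °C and 5% CO2, seeded at 1x10^4/well, then dosed 24 h later (0–200 μM) for 48 h. Hypoxia: 1% O2, 5% CO2, balance N2 in a hypoxic workstation; normoxia: 20% O2 in air, 5% CO2. MTT (1 mg/ml) for 30 min at 37 °C, formazan dissolved in DMSO, A550. Untreated control set to 100%; quadruplicates, ≥3 cell batches, mean ± S.E.M.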

HT-29 [2] = assay: Cytotoxicity against human HT-29 cells assessed as reduction in cell viability after 48 hrs under normoxic conditions by MTT assay; in short: as §1
PC-3 [3] = assay: Cytotoxicity against human PC3 cells assessed as reduction in cell viability after 48 hrs under hypoxic conditions by MTT assay; in short: as §1
PC-3 [4] = assay: Cytotoxicity against human PC3 cells assessed as reduction in cell viability after 48 hrs under normoxic conditions by MTT assay; in short: as §1
MDA-MB-231 [5] = assay: Cytotoxicity against human MDA-MB-231 cells assessed as reduction in cell viability after 48 hrs under normoxic conditions by MTT assay; in short: as §1
HT-29 [6] = assay: Cytotoxicity against human HT-29 cells assessed as reduction in cell viability after 48 hrs under hypoxic conditions by MTT assay; in short: as §1

Measured: Activity

NS(=O)(=O)c1cc([N+](=O)[O-])c(O)c([N+](=O)[O-])c1
active: MDA-MB-231 [1] Dose-dependent effect | HT-29 [2] Dose-dependent effect | PC-3 [3] Dose-dependent effect | PC-3 [4] Dose-dependent effect | MDA-MB-231 [5] Dose-dependent effect | HT-29 [6] Dose-dependent effect
